# From ChEMBL document CHEMBL1129524, “Potent inhibitors of acyl-CoA:cholesterol acyltransferase. 2. Structure-activity relationships of novel N-(2,2-dimethyl-2,3-dihydrobenzofuran-7-yl)amides” (J Med Chem, 1996)
# By UniProt entry, the sequences of proteins in these tests, tags left out. Residues count along the entry.
# UniProt G1SFD9, 1-524: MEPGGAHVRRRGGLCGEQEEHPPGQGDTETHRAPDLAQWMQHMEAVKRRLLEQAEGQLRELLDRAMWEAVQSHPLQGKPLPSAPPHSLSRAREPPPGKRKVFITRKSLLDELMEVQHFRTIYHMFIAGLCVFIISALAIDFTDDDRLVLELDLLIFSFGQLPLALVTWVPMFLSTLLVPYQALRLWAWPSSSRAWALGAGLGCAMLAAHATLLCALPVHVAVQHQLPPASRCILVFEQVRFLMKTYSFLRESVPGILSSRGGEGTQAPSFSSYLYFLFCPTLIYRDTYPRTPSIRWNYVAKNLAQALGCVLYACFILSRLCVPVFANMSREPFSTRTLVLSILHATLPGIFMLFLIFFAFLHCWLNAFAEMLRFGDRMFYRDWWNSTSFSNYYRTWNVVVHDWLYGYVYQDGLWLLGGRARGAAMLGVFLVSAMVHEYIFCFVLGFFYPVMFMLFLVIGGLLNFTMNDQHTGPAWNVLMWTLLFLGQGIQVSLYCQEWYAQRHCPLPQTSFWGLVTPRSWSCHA
# Molecular target: O-acyltransferase (Oryctolagus cuniculus, UniProt G1SFD9)
# Test: Inhibitory activity against Acyl coenzyme A:cholesterol acyltransferase 1 obtained from rabbit intestine microsomes
# Outline: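 Enzyme source was small-intestinal mucosa microsomes from cholesterol-fed rabbits. The substrate was [1-¹⁴C]oleoyl-CoA.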
row,SMILES,IC50 [µM]
1,CCCCCCCCCCC1(C(=O)Nc2c(C)c(Cl)c(C)c3c2OC(C)(C)C3)CCCC1,0.29
2,CCCCCCCCCCCCCCCC(=O)Nc1c(C)ccc2c1OC(C)(C)C2,0.024

# Further molecules by falling IC50, results first:
row,IC50 [µM],SMILES
1,0.4,Cc1cc(C)c(NC(=O)C(C)(C)CCCCOCc2ccccc2)c2c1CC(C)(C)O2
2,0.059,Cc1cc(C)c(NC(=O)C(C)(C)CCCCCCOCC(C)C)c2c1CC(C)(C)O2
3,0.042,CCCCCCCCCCC(C)(C)C(=O)Nc1c(C)cc(C)c2c1OC(C)(C)C2
